Paper PMC10532679

Tests used:
CREBtide = details: cited from earlier work
CREBtide (Homo sapiens) = CREBtide (Homo sapiens) (UniProt P16220); details: cited from earlier work
[1] = molecular target: full-length CREB fused to an N-terminal glutathione-S-transferase tag (GST-CREB) (UniProt P16220)

| K (m,app), steady-state kinetics analysis (ADP-Glo) (Crosstide) | K (m,app), steady-state kinetics analysis (ADP-Glo) (Kemptide) | K (m,app), steady-state kinetics analysis (ADP-Glo) [1] | Substance | Kd (CREBtide) | Kd (CREBtide (Homo sapiens)) |
| --- | --- | --- | --- | --- | --- |
|  |  |  | PKA-Cα (from UniProt P17612) | 3.9 µM | 3.9 µM |
| 73.4 µM | 44 µM | 3.39 µM | wild-type H6-PKA-Cα, untreated (alpha isoform of the catalytic subunit of cAMP-dependent protein kinase) (from UniProt P05132 2-351) (enzyme) |  |  |
